Literature values as cited in patent US12116388B2, “Amylin receptor agonists” (Novo Nordisk A/S, priority 2022, dated 2024).

Conditions: background statement; cited from earlier work

CC[C@H](C)[C@H](NC(=O)[C@@H]1CCCN1C(=O)CNC(=O)[C@H](Cc1ccccc1)NC(=O)[C@H](CC(N)=O)NC(=O)[C@H](CC(N)=O)NC(=O)[C@H](CO)NC(=O)[C@H](CO)NC(=O)[C@H](Cc1c[nH]cn1)NC(=O)[C@@H](NC(=O)[C@H](CC(C)C)NC(=O)[C@H](Cc1ccccc1)NC(=O)[C@H](CC(N)=O)NC(=O)[C@H](C)NC(=O)[C@H](CC(C)C)NC(=O)[C@H](CCCNC(=N)N)NC(=O)[C@H](CCC(N)=O)NC(=O)[C@@H](NC(=O)[C@H](C)NC(=O)[C@@H]1CSSC[C@H](NC(=O)[C@@H](N)CCCCN)C(=O)N[C@@H](CC(N)=O)C(=O)N[C@@H]([C@@H](C)O)C(=O)N[C@@H](C)C(=O)N[C@@H]([C@@H](C)O)C(=O)N1)[C@@H](C)O)C(C)C)C(=O)N[C@@H](CC(C)C)C(=O)N1CCC[C@H]1C(=O)N1CCC[C@H]1C(=O)N[C@H](C(=O)N[C@@H](CC(N)=O)C(=O)N[C@H](C(=O)NCC(=O)N[C@@H](CO)C(=O)N[C@@H](CC(N)=O)C(=O)N[C@H](C(=O)N[C@@H](Cc1ccc(O)cc1)C(N)=O)[C@@H](C)O)C(C)C)[C@@H](C)O [Pramlintide, pramlintide]
biological half-life: less than 1 hour
